Data on 62 compounds can be found in PubChem BioAssay AID588413 (Sanford-Burnham Center for Chemical Genomics, 2011).

The structures appear in SMILES notation. The entries are a selection whose mix differs from that of the whole data set. The source made the active and inactive calls.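 Rule for the calls: active = inhibition above about 55% (limit read from the data); inactive = the rest.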

For orientation: inhibition means the change of the read-out against control, counted positive when it falls.

The nature of the test: blockers of Gli reporter signaling – luciferase luminescence, Sufu-KO-LIGHT cells, uHTS, primary screen (AID 588413).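 Note: 0% = DMSO-treated cells and 100% = wells with medium but no cells.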 Conditions: Sufu-KO-LIGHT fibroblasts, at 5 µM, hits give high values.
Take `O=C(OC1CN2CCC1CC2)c1ccccc1` (configuration not stated): the inhibition is inactive: 15.6%. The value for `CN(C)C(=O)Oc1noc2ccccc12` was inactive: 2.82%; that for `O=c1c2cc([N+](=O)[O-])ccc2[nH]c2c([N+](=O)[O-])cc([N+](=O)[O-])cc12` was inactive: 26.4%; that for `Cc1ccccc1OP(=O)(Nc1ccccn1)Oc1ccccc1C` was inactive: -4.21%. As for `CC(NC(=O)COC(=O)C(O)(c1ccccc1)c1ccccc1)c1ccccc1` (configuration not stated), the figure is inactive: 4.38%; as for `CCNC(=S)/N=C(\N)N[N+](=O)[O-]`, inactive: 0.08%. The value for `O=C(NC1CCS(=O)(=O)C1)NP(=S)(Oc1ccccc1)Oc1ccccc1` (configuration not stated) was inactive: 0.88%; that for `Cc1ccc(NP(=O)(Oc2cccc(C)c2)Oc2cccc(C)c2)nc1` was inactive: 5.89%; that for `c1ccc(-c2nn[nH]n2)c(-c2nn[nH]n2)c1` was inactive: -3.02%. For `O=P1(N(CCCl)CCCl)OCCC2CCCCN21` (configuration not stated), the inhibition is inactive: 7.29%. The value for `COC(=O)C1(C)COP(=O)(NCc2ccccc2)OC1` (configuration not stated) was inactive: -16.3%; that for `N#C/C(=C\c1ccc(N(CCBr)CCBr)cc1)C(N)=O` was active: 75.1%. As for `CC(=O)c1ccc(N2CC2c2ccncc2)cc1` (configuration not stated), the figure is inactive: -25.4%; as for `C[C@@H]1C=CCP(=O)(Oc2ccccc2)O1` (some centres not stated), inactive: -5.73%; as for `C[C@H]1OP(=O)(Oc2ccccc2)C[C@@H]2O[C@@H]21` (some centres not stated), inactive: -5.99%. Take `Cc1ccccc1CN(C)C(=O)COC(=O)C(O)(c1ccccc1)c1ccccc1`: the inhibition was inactive: -5.22%. As for `CC(=O)Nc1ccc(Oc2c([N+](=O)[O-])cc([N+](=O)[O-])cc2[N+](=O)[O-])cc1`, the figure is inactive: -5.09%; as for `CC(=O)Nc1ccc([As](=O)(O)O)c(O)c1`, inactive: -0.49%; as for `CCOc1ccc(C2=NCC(CBr)S2)cc1` (configuration not stated), inactive: -8.45%. In the case of `O=P1(Nc2nc3ccc(Cl)cc3s2)COc2ccccc2O1` (configuration not stated), the inhibition is inactive: 16.9%. In the case of `CCc1cc(O)c([N+](=O)[O-])c(C)c1[N+](=O)[O-]`, the inhibition was inactive: 1.21%.

Consider `CC(C)(C)C(=O)NC(Sc1ccccc1)C(Cl)(Cl)Cl` (configuration not stated), for which the inhibition was inactive: -27.3%. The value for `CC(C)CC(=O)NC(Sc1ccc(Cl)cc1)C(Cl)(Cl)Cl` (configuration not stated) was inactive: -0.43%; that for `Nc1cc(N)c2nonc2c1[N+](=O)[O-]` was inactive: -8%. In the case of `O=C(NC(Sc1ccncn1)C(Cl)(Cl)Cl)c1ccccc1` (configuration not stated), the inhibition was inactive: 5.02%. The value for `Oc1ccccc1CNc1ccccn1` was inactive: -4.93%; that for `NC(=O)c1cc([N+](=O)[O-])cc([N+](=O)[O-])c1N` was inactive: 0.63%. Take `Cc1ccc(N/C(=N/P(=O)(N2CCOCC2)N2CCOCC2)N2CCOCC2)cc1`: the inhibition is inactive: -4.99%.

Take `CN(C(=O)Cc1ccc(Cl)c(Cl)c1)[C@H]1CCCC[C@H]1N1CCCC1`: the inhibition was inactive: 10.2%. As for `Cc1ccc(OP(=O)(Nc2nccs2)Oc2ccc(C)cc2)cc1`, the figure is inactive: -0.32%; as for `COc1ccccc1OP(=O)(Nc1ccc(C)cn1)Oc1ccccc1OC`, inactive: 0.99%; as for `Clc1ccc(Cl)c(NC2=NCC(CBr)S2)c1` (configuration not stated), inactive: 2.97%. As for `CN1CCCC(OC(=O)C(c2ccccc2)c2ccccc2)C1` (configuration not stated), the figure is active: 59.3%; as for `CCN(N=Nc1nonc1N)c1nonc1N`, inactive: -0.9%; as for `Nc1cccc2ccc([As](=O)(O)O)cc12`, inactive: 1.07%. As to `CCCC1OP(N)(=O)OCC1CC` (configuration not stated), the inhibition was inactive: -3.57%. As to `O=C(O)c1ccccc1[As](=O)(O)O`, the inhibition was inactive: 42.8%.

On to `CC(=O)Nc1ccc([As](=O)(O)O)cc1`, for which the inhibition is inactive: 14.4%. For the compound `O=P(Nc1nc2ccc(Cl)cc2s1)(c1ccccc1)c1ccccc1`, the inhibition is inactive: -4.7%. For the compound `Cc1ccc(NP(=O)(Oc2ccccc2F)Oc2ccccc2F)nc1`, the inhibition is inactive: 2.67%. The value for `CN(C(=O)Cc1ccc(Cl)c(Cl)c1)[C@H]1CCCC[C@@H]1N1CCCC1` was inactive: 5.45%; that for `CCOP(=O)(Nc1ccccc1)OCC` was inactive: -11.7%; that for `Cc1cc(SC(NC(=O)c2ccc(F)cc2)C(Cl)(Cl)Cl)ncn1` (configuration not stated) was inactive: 0.09%. Take `CC(C)(C)C(=O)NC(Sc1ccncn1)C(Cl)(Cl)Cl` (configuration not stated): the inhibition was inactive: 4.81%. As for `O=[N+]([O-])c1ncn(CCn2ncnc2[N+](=O)[O-])n1`, the figure is inactive: -0.81%; as for `O=[N+]([O-])c1cccc(NC2=NCC(CBr)S2)c1` (configuration not stated), inactive: 6.64%; as for `COC(=O)C1(C)COP(=O)(Nc2ccccc2)OC1` (configuration not stated), inactive: -0.55%. As for `O=C(O)CNc1ccc([As](=O)(O)O)cc1`, the figure is inactive: -6.4%; as for `O=P1(N(CCCl)CCCl)OCCCS1` (configuration not stated), inactive: 3.69%; as for `O=C(Nc1cc([As](=O)(O)O)ccc1O)c1ccccc1`, inactive: 13%. `C[N+]1=C2C=CC=CC=C2SC12C([N+](=O)[O-])=CC([N+](=O)[O-])=C[C-]2[N+](=O)[O-]` (configuration not stated): the inhibition was inactive: 5.83%. Take `Nc1ccc([As](=O)(O)c2ccc(N)cc2)cc1`: the inhibition is inactive: 5.92%. The value for `CCN(/C(=N/P(=O)(N1CCOCC1)N1CCOCC1)N1CCOCC1)c1ccc(OC)cc1` was inactive: -9.77%; that for `CN(C)C(=O)OCCc1n(C)cc[n+]1C` was inactive: 3.84%. The value for `CC(C)=N/N=C(\N)N[N+](=O)[O-]` was inactive: -3.38%; that for `CC1CCN(C(=O)Oc2c(Cl)cc(Cl)c3cccnc23)CC1` was inactive: 4.7%; that for `COc1ccc(C2=NCC(CBr)S2)cc1` (configuration not stated) was inactive: -9.67%. For the compound `O=[N+]([O-])c1cccc2n[nH]nc12`, the inhibition is inactive: -2.98%. The value for `CC(=O)N1C2C3N(C(C)=O)C1C1N(C(C)=O)C(C(N1C(C)=O)N3C(C)=O)N2C(C)=O` was inactive: 4.76%; that for `CCc1nc2c(n1)c1c(non1O)c1c2no[n+]1[O-]` was inactive: -1.74%.

On to `O=[N+]([O-])c1cc([N+](=O)[O-])c(CCNc2ccccc2)c([N+](=O)[O-])c1`, for which the inhibition was inactive: -8.36%. Regarding `Cc1ccc(NP(=O)(Oc2ccccc2)Oc2ccccc2)nc1`, the inhibition is inactive: -14.1%.
